Here are results for 1 molecule from article PMC3661926 (Acta Neuropathologica, 2013).

In the assay the test system is (Thy1)-h[A30P]α-syn mice. As to the kind of experiment: Transgenic α-synuclein mouse model. The note with it: 69-week-old mice.

SMILES strings stand for the structures.

For the molecule `Brc1cccc(-c2cc(-c3ccc4c(c3)OCO4)n[nH]2)c1` [anle138b, 3-(1,3-benzodioxol-5-yl)-5-(3-bromophenyl)-1H-pyrazole], the “pathological α-syn oligomers (sucrose-gradient)” value is given as “strong reduction of pathological α-syn oligomers”.
